Results from PubChem BioAssay AID504634 (The Scripps Research Institute Molecular Screening Center, 2011).
This is a selection; strong and weak results do not stand in their true shares. Calls of active or inactive are those of the source. No stated cut-off is given here; in the data, active means inhibition mostly above about 23% (no sharp cut-off); inactive means mostly below about 18%.

By UniProt entry, the sequences of proteins in these tests, tags left out.
UniProt P47898, whole entry, looked up: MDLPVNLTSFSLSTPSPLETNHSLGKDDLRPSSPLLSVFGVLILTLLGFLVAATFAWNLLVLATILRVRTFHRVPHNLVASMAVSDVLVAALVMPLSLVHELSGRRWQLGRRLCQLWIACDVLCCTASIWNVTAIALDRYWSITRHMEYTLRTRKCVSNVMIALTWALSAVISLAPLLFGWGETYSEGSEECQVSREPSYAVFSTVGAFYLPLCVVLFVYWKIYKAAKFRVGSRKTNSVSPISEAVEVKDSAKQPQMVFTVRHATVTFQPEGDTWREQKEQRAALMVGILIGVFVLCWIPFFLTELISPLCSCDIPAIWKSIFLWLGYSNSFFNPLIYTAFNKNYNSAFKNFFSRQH

molecular target: 5-hydroxytryptamine receptor 5A (Homo sapiens) (UniProt P47898); experiment: HTR5A inverse agonists in luminescence cell assay, primary screen, counter-screen for OPRM1-OPRD1 heterodimer inverse agonist project, full-deck HTS (AID 504634); details: HTR5A cell line, inverse agonism, at 9.3 µM, stronger effect = higher value;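 further: 0% = cells with DMSO and 100% = no-cell wells with DMSO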

SMILES	inhibition
Cc1cc(N2C(=O)CC(N3CCC(n4c(=O)[nH]c5ccccc54)CC3)C2=O)no1 (configuration not stated)	inactive: -7.78%
COc1cc(Cl)c(C)cc1NC(=O)Cn1c(NCCO)nc2ccccc21	inactive: -14.1%
Cc1ccc(CNC(=O)CCCCCNC(=O)N2CCn3c2nc2ccccc23)cc1	inactive: 9.54%
Brc1cccc(CNc2nc3ccccc3n2CCN2CCOCC2)c1	inactive: 5.24%
S=C(Nc1ccccc1)N1CCn2c(nc3ccccc32)C1	inactive: -1.97%
C[C@H](O)[C@@H]1C(=O)N2CCc3ccc(N4CCOCC4)cc3[C@@H]2C[C@@H]1N(C)C(=O)C(C)(C)C	inactive: 11.1%
O=C(NCCn1c(C(F)(F)F)nc2cc(C(F)(F)F)ccc21)[C@H]1CCCN1c1nc(CN2CCCCC2)cs1	inactive: -16.9%
Cc1cc(C)cc(NC(=O)Cn2c(-c3ccccc3Cl)nc3ccccc32)c1	inactive: 13.4%
CC(C)(C)C(=O)NC(Sc1ncccn1)C(Cl)(Cl)Cl (configuration not stated)	inactive: -15.1%
CCCC(=O)Nc1nnc(/C=C/c2ccccc2)s1	inactive: -6.84%
Cn1c(=O)c2ncn(CC(=O)Nc3cc(C(F)(F)F)ccc3N3CCOCC3)c2n(C)c1=O	inactive: -12.6%
Cn1c(=O)c2c(ncn2CC(=O)Nc2nnc(Cc3ccccc3)s2)n(C)c1=O	inactive: 3.33%
COc1ccc(CNC(=O)Cn2cnc3c(SC)nc(N)nc32)cc1	inactive: -8.03%
COc1ccc(OCC(O)Cn2c(=N)n(CCN3CCOCC3)c3ccccc32)cc1 (configuration not stated)	inactive: -3.73%
CN(C)CCn1c(NC(=O)c2ccc(Cl)cc2)nc2ccccc21	inactive: -14.5%
O=C(Cn1c(C(F)(F)F)nc2ccccc21)Nc1ccccc1C(=O)O	inactive: 10.5%
Clc1n[nH]nc1-c1nn[nH][15n]1	inactive: 13.2%
COc1ccc(/C=N/NC(=O)Cn2c(Cc3ccc(OC)c(OC)c3)nc3ccccc32)cc1OC	inactive: -5.32%
Cc1ccc(CSc2nc3ccncc3n2CC(=O)Nc2cc(C)cc(C)c2)cc1	inactive: 3.47%

SMILES	inhibition
NNC(=O)Cn1c(-c2nonc2N)nc2ccccc21	inactive: 7.96%
CC(C)(C)NC(=O)Cn1c(=O)n(CC(=O)NC(C)(C)C)c2ccccc21	inactive: 9.45%
O=C(Cn1c(SCc2ccccc2)nc2ccccc21)N1CCOCC1	inactive: -21%
Cn1c(=O)c2c(ncn2CC(=O)N2CCN(c3ccc(F)cc3)CC2)n(C)c1=O	inactive: -5.79%
CCCCNC(=O)CC1C(=O)N(Cc2ccccc2)C(C)c2nc3ccccc3n21 (configuration not stated)	inactive: 7.41%
CCOP(=O)(NC(=NC(C)c1ccccc1)NC(C)c1ccccc1)OCC (configuration not stated)	inactive: -23.1%
O=C(Cn1c(NCCO)nc2ccccc21)NCCc1ccc(F)cc1	inactive: 13.8%
CC(NC(=O)Cn1c(NCCO)nc2ccccc21)C1CC2CCC1C2 (configuration not stated)	inactive: 4.02%
CCN(CC)CCn1c(NCc2cccc(OC)c2)nc2ccccc21	inactive: -9.16%
O=C(Cn1c(-c2cscn2)nc2ccccc21)Nc1ccc2ccccc2c1	inactive: -13.8%
CCC1=CC2Cc3nc4ccc(Cl)cc4c(N)c3C(C1)C2 (configuration not stated)	inactive: 0.24%
Cn1c(=O)c2c(ncn2CC(=O)N2CCCc3ccccc32)n(C)c1=O	inactive: 21.1%
COc1cccc(CNC(=O)CCCCCNC(=O)N2CCn3c2nc2ccccc23)c1	inactive: -4.64%
O=P1(Nc2ccccn2)COc2ccccc2OC1	inactive: -4.06%
CC(c1ccccc1)N1CCn2c(nc3cc(NC(=O)NC4CCCCC4)ccc32)C1 (configuration not stated)	inactive: 25%
CC(C)NC(=O)CSc1nc2ccccc2n1CC(=O)N1CCc2ccccc21	inactive: -2.35%
CC(C)C[C@H](NC(=O)N1CCn2c1nc1ccccc12)C(=O)N[C@@H](C(=O)O)c1ccccc1	inactive: 4.58%
CN(C)C1(c2nnnn2CCOC(=O)Nc2ccc(Cl)cc2)CCCCC1	inactive: -27.8%
CC1c2nc3ccccc3n2C(CC(=O)NC2CC2)C(=O)N1Cc1ccccc1 (configuration not stated)	inactive: 2.31%

SMILES	inhibition
CNC(=O)Cn1c(=O)n(C)c2ccccc21	inactive: 10.1%
CCN1C(=O)CC(N2CCC(Nc3ccc(F)cc3)CC2)C1=O (configuration not stated)	inactive: -4.56%
CCOP(=O)(Nc1ccc(C)cn1)OCC	inactive: 3.21%
CSc1nc(N)nc2c1ncn2CC(=O)NCCNc1ccc([N+](=O)[O-])cn1	inactive: -1.53%
CCOC(=O)Cc1csc(NC(=O)Cn2cnc3c2c(=O)n(C)c(=O)n3C)n1	inactive: 2.36%
CCOc1ccc(C(=O)N2CCn3c2nc2ccccc23)cc1	inactive: -6.17%
CCOC(=O)c1ccc(NC(=O)Cn2cnc3cc(C)c(C)cc32)cc1	inactive: -2.63%
Cc1ccc(-c2nc(N(C)C3CCN(C)CC3)c3ccccc3n2)cc1	inactive: -20.3%
O=C(Cn1c(CO)nc2ccccc21)NCc1ccc2c(c1)OCO2	inactive: 5.4%
Cc1cccc(N2CCN(C(=O)Cn3cnc4c3c(=O)n(C)c(=O)n4C)CC2)c1C	inactive: -0.74%
COC(=O)[C@H](CCSC)NC(=O)Cn1cnc2c(OCc3ccccc3)ncnc21	inactive: 1.57%
O=C(Cn1c(COc2ccc(Cl)cc2)nc2ccccc21)NCC(F)(F)F	inactive: -4.37%
C[C@H](O)[C@@H]1C(=O)N2CCc3ccc(-c4cccc(F)c4)cc3[C@@H]2C[C@@H]1N(C)C(=O)C(C)(C)C	inactive: 12.1%
CCN(CC)CCn1c(NC(=O)c2ccc(C)cc2)nc2ccccc21	inactive: -29.1%
CN(C(=O)Cc1ccc(Cl)c(Cl)c1)[C@@H]1CCCC[C@H]1N1CCCC1	inactive: -6.19%
CC(C)/C=N\N=C(\N)N[N+](=O)[O-]	inactive: -17.7%
COc1ccc(CCNC(=O)CCCCCNC(=O)N2CCn3c2nc2ccccc23)cc1OC	inactive: -10.6%
CCC(=O)Nc1ccc2c(c1)nc1n2CCN(C2CCCCC2)C1	inactive: 7.22%
O=C(Nc1nc2ccccc2n1CCN1CCOCC1)c1ccc(COc2ccccc2Br)o1	inactive: -9.99%
